pIC50: −log10 of the molar value.
The compounds below were run against HDAC1 enzyme (recombinant GST-HDAC1) (Homo sapiens (Human), UniProt Q13547) (assay: In vitro HDAC assay for determination of IC50 values (BIOMOL fluorescent-based HDAC activity assay)). Conditions: Flur de lys substrate, 2 h room temperature, read-out: IC50 (HDAC 1).
Type: biochemical
Procedure: Biological Testing and Enzyme Assays Recombinant GST-HDAC1 Protein Expression and Purification
Human cDNA library was prepared using cultured SW620 cells. Amplification of human HDAC1 coding region from this cDNA library was cloned separately into the baculovirus expression pDEST20 vector (GATEWAY Cloning Technology, Invitrogen Pte Ltd). The pDEST20-HDAC1 construct was confirmed by DNA sequencing. Recombinant baculovirus was prepared using the Bac-To-Bac method following the manufacturer's instruction (Invitrogen Pte Ltd).
Expression of GST-HDAC1 was done by infecting SF9 cells (Invitrogen Pte Ltd) with pDEST20-HDAC1 baculovirus at MOI=1 for 48 h. Soluble cell lysate was incubated with pre-equilibrated Glutathione Sepharose 4B beads (Amersham) at 4° C. for 2 h. The beads were washed with PBS buffer for 3 times. The GST-HDAC1 protein was eluted by elution buffer containing 50 mM Tris, pH8.0, 150 mM NaCl, 1% Triton X-100 and 10 mM or 20 mM reduced Glutathione. The purified GST-HDAC1 protein was dialyzed with HDAC storage buffer containing 10 mM Tris, pH7.5, 100 mM NaCl and 3 mM MgCl2. 20% Glycerol was added to purified GST-HDAC1 protein before storage at −80° C.
In Vitro HDAC Assay for Determination of IC50 Values
The assay has been carried out in 96 well format and the BIOMOL fluorescent-based HDAC activity assay has been applied. […] Flur de lys Developer was added and the reaction was incubated for 10 min. Briefly, deacetylation of the substrate sensitizes it to the developer, which then generates a fluorophore. The fluorophore is excited with 360 nm light and the emitted light (460 nm) is detected on a fluorometric plate reader (Tecan Ultra Microplate detection system, Tecan Group Ltd.).
The analytical software, Prism 4.0 (GraphPad Software Inc) has been used to generate IC50 from a series of data.

Protein sequences, listed by entry. Tags and fused reporters are not part of them.
UniProt Q13547, whole entry: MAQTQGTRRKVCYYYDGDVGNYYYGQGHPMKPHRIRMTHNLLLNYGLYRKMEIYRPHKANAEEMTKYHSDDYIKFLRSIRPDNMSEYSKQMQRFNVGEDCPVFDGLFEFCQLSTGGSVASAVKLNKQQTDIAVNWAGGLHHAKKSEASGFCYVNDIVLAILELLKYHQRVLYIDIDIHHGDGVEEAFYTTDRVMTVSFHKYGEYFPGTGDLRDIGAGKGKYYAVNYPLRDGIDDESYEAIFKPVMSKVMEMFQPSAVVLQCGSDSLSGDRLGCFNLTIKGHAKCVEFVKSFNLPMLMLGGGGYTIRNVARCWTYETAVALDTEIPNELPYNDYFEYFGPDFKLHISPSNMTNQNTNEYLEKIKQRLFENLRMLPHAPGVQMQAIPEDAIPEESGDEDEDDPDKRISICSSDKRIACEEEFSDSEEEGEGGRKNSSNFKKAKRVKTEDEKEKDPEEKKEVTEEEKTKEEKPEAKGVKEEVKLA

Question: With CCC(C)CN(CC)Cc1c(C(C)(C)C)nc2cc(/C=C/C(=O)NO)ccn12 (stereo not drawn) [Compound 88, 3-(2-tert-Butyl-3-{[ethyl-(2-methyl-butyl)-amino]-methyl}-imidazo[1,2-a]pyridin-7-yl)-N-hydroxy-acrylamide] as the compound, how does the pIC50 read?
Answer: 6.59

Question: How did the pIC50 turn out when CCN(CCC(C)C)Cc1c(C)nc2cc(/C=C/C(=O)NO)ccn12 [Compound 124, 3-(3-{[Ethyl-(3-methyl-butyl)-amino]-methyl}-2-methyl-imidazo[1,2a]pyridin-7-yl)-N-hydroxy-acrylamide] was run?
Answer: 7.70

Question: With CCN(CCC(C)C)Cc1c(CC(C)C)nc2cc(/C=C/C(=O)NO)ccn12 [Compound 135, 3-(3-{[Ethyl-(3-methyl-butyl)-amino]-methyl}-2-isobutyl-imidazo[1,2-a]pyridin-7-yl)-N-hydroxy-acrylamide] as the compound, how does the pIC50 read?
Answer: 7.70
